As a reminder, the IC50 is the concentration that gives 50% inhibition.

By UniProt entry, the sequences of proteins in these tests, tags left out. Residues count along the entry.
UniProt Q00535, whole entry: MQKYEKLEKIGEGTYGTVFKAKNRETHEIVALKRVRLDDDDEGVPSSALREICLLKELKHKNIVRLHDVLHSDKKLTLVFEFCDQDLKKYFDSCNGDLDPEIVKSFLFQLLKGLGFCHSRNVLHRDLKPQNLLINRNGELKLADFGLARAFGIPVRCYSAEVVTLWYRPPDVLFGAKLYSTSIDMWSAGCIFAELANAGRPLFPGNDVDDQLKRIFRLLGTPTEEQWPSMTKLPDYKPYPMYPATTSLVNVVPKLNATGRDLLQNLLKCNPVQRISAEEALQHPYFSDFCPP
UniProt Q15078, 99-307 partner limits assumed: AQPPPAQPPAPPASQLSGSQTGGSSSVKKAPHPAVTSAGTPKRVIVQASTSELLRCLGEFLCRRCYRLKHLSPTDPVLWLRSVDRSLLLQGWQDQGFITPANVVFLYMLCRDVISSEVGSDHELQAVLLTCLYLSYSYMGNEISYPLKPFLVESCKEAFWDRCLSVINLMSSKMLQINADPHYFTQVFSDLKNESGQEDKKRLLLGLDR

The test system of experiment [1] is Huh7 (liver). As to the kind of experiment: Cytotoxicity on human cells, automated nuclei counting: Huh7. The following applies: read-out: IC50 μM Human cells Huh7 (liver), exposed 24 h to 48 h, 0.1 to 25 μM.
Experiment [2] deals with Caco (colon). As to the kind of experiment: Cytotoxicity on human cells, automated nuclei counting: Caco. The following applies: read-out: IC50 μM Human cells Caco (colon), exposed 24 h to 48 h, 0.1 to 25 μM.
The test system of experiment [3] is MDA-MB 231 (breast). As to the kind of experiment: Cytotoxicity on human cells, automated nuclei counting: MDA-MB 231. The following applies: read-out: IC50 μM Human cells MDA-MB 231 (breast); MDA-MB 231 cells, exposed 24 h to 48 h, 0.1 to 25 μM.
For experiment [4], the system named is HCT 116 (colon). The experiment can be described thus: Cytotoxicity on human cells, automated nuclei counting: HCT 116. The following applies: read-out: IC50 μM Human cells HCT 116 (colon); HCT 116 cells, exposed 24 h to 48 h, 0.1 to 25 μM.
The test system of experiment [5] is PC3 (prostate). The experiment can be described thus: Cytotoxicity on human cells, automated nuclei counting: PC3. To be noted: read-out: IC50 μM Human cells PC3 (prostate), exposed 24 h to 48 h, 0.1 to 25 μM.
Experiment [6] deals with NCI (lung). The experiment can be described thus: Cytotoxicity on human cells, automated nuclei counting: NCI. The following applies: read-out: IC50 μM Human cells NCI (lung), exposed 24 h to 48 h, 0.1 to 25 μM.
Experiment [7] has as its system fibroblast. The experiment can be described thus: Cytotoxicity on human cells, automated nuclei counting: fibroblast. The following applies: read-out: IC50 μM Human cells fibroblast, exposed 24 h to 48 h, 0.1 to 25 μM.
The target in experiment [8] is CDK5/D25 (Homo sapiens, UniProt Q00535). The experiment can be described thus: CDK5 kinase inhibition (33P-ATP, histone H1). It is filed as biochemical. The following applies: read-out: IC50 μM Kinases CDK5, buffer C, 30° C., 15 μM ATP.

Consider `O=C1c2cccc(NC(=S)Nc3cccc4c3C3CC5(CCN3C4=O)SCCS5)c2C2CC3(CCN12)SCCS3` (centres unmarked), for which the IC50 in experiment [1] was 1 µM; in experiment [2], greater than 25 µM; in experiment [3], greater than 25 µM; in experiment [4] it was 3 µM; in experiment [5], 7 µM; in experiment [6] it was 5 µM. In addition, the IC50 in experiment [7] was greater than 25 µM; in experiment [8] it was greater than 10 µM.

For the origin of these results see patent US20120095022A1, “DERIVATIVES OF 10-AMINO-1,2,3,4-TETRAHYDROPYRIDO[2,1-A]ISOINDOL-6(10BH)-ONES, METHOD FOR PREPARATION THEREOF AND THERAPEUTIC USES THEREOF” (UNIVERSITE D'ORLEANS, priority 2009, published 2012).
